From PubChem BioAssay AID488961 (Johns Hopkins Ion Channel Center, 2010) come the findings set out here.

Sequences of proteins named here, by UniProt entry; tags and fusion partners are left off.
UniProt Q61143, whole entry: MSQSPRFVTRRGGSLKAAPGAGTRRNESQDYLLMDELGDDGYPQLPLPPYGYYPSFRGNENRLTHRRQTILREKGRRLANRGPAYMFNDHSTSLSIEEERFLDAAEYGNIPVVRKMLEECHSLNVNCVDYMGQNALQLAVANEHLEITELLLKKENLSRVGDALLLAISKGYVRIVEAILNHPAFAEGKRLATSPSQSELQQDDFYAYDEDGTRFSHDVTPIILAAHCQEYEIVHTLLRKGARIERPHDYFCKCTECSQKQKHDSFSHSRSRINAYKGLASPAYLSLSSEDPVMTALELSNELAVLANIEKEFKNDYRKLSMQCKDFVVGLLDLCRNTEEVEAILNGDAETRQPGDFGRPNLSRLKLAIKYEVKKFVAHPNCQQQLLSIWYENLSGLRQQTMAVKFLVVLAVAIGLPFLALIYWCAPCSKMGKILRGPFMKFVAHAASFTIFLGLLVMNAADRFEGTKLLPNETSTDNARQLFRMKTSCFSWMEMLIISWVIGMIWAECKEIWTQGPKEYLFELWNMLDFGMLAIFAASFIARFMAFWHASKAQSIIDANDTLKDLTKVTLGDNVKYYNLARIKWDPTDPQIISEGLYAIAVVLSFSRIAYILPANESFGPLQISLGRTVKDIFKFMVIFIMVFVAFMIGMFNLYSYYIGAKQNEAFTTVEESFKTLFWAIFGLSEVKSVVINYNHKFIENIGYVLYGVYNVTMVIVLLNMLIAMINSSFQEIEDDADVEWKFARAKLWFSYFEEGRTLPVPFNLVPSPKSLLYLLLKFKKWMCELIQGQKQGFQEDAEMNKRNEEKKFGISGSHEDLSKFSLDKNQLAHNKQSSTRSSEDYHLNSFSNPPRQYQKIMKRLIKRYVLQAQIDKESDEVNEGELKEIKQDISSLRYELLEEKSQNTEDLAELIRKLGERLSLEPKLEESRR

The entries are a selection whose mix differs from that of the whole data set. Some tests of the compounds listed are not included; inactive here does not mean inactive elsewhere. The source made the active and inactive calls.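 Rule for the calls: active = ratio signal rise beyond 5 SD above unstimulated control wells' mean, seen in both duplicate runs; inactive = the rest.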

The assay has as its target Short transient receptor potential channel 6 (Mus musculus) (UniProt Q61143). Put plainly: mouse TRPC6 channel activators, confirmation, HEK293 cells, membrane potential dye, duplicate (AID 488961). To be noted: HEK293-TRPC6 membrane potential dye fluorescence, FDSS; at 10 µM.
For `O=C(OC1CN2CCC1CC2)C(CO)(c1ccccc1)c1ccccc1` (stereo unspecified), the result was inactive.
